Here are results for one molecule from PMC2528190 (Nucleic Acids Research, 2008).

The target in the experiment is T1, DNA polymerase III α-subunit (Escherichia coli, UniProt P10443 1-1160).
T1 sequence: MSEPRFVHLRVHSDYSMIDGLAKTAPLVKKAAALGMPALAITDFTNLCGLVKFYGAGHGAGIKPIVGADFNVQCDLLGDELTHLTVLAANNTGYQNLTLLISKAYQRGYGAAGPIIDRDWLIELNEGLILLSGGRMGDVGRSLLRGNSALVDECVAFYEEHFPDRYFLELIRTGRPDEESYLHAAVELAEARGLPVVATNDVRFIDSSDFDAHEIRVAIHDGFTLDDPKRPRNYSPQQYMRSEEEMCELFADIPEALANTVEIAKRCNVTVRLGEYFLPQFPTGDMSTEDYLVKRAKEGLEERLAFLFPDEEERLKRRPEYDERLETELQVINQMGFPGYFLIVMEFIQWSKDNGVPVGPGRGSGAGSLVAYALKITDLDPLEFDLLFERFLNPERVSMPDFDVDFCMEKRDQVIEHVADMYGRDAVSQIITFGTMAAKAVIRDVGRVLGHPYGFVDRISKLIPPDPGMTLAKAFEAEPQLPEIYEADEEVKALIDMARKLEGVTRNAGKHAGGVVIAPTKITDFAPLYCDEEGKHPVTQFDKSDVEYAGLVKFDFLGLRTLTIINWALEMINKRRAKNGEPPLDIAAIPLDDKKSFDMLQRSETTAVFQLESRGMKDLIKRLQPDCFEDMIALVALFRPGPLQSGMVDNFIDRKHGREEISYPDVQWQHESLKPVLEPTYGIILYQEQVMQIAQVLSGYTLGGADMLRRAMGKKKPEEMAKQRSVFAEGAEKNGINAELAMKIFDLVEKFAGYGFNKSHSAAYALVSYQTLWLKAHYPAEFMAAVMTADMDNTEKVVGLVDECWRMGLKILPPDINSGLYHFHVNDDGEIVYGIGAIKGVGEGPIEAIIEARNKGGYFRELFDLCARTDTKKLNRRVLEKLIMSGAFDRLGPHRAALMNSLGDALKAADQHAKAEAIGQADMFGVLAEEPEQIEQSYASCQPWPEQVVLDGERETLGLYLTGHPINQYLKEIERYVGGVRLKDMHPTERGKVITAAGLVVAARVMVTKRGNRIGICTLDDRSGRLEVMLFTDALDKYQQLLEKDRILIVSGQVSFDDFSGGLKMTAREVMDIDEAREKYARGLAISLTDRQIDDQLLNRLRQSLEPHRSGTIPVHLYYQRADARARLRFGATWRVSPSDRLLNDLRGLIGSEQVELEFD
Kind of experiment: NMR titration.

B1: ɛ186:θ complex (complex)
chain 1: MSTAITRQIVLDTETTGMNQIGAHYEGHKIIEIGAVEVVNRRLTGNNFHVYLKPDRLVDPEAFGVHGIADEFLLDKPTFAEVADEFMDYIRGAELVIHNAAFDIGFMDYEFSLLKRDIPKTNTFCKVTDSLAVARKMFPGKRNSLDALCARYEIDNSKRTLHGALLDAQILAEVYLAMTGGQTSMA
chain 2: MLKNLAKLDQTEMDKVNVDLAAAGVAFKERYNMPVIAEAVEREQPEHLRSWFRERLIAHRLASVNLSRLPYEPKLK
For the molecule B1, the Kd is above 100 µM.
